Measurements: PMC8343220, “The selectivity of α‐adrenoceptor agonists for the human α1A, α1B, and α1D‐adrenoceptors” (Pharmacology Research & Perspectives, 2021)

Protein sequences, listed by entry. Tags and fused reporters are not part of them.
UniProt P35348, whole entry: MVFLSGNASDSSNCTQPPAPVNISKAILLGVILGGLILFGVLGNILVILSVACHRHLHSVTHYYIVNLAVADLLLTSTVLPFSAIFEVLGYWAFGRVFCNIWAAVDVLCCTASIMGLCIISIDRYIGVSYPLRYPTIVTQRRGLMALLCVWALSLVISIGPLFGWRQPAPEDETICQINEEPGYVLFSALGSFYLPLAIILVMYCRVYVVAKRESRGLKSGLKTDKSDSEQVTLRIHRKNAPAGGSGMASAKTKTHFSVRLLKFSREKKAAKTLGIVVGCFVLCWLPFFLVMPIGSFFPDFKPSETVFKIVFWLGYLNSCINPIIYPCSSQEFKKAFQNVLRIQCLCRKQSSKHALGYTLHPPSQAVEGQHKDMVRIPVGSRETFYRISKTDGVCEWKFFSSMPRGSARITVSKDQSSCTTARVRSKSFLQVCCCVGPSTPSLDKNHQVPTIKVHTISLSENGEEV
UniProt P35368, whole entry: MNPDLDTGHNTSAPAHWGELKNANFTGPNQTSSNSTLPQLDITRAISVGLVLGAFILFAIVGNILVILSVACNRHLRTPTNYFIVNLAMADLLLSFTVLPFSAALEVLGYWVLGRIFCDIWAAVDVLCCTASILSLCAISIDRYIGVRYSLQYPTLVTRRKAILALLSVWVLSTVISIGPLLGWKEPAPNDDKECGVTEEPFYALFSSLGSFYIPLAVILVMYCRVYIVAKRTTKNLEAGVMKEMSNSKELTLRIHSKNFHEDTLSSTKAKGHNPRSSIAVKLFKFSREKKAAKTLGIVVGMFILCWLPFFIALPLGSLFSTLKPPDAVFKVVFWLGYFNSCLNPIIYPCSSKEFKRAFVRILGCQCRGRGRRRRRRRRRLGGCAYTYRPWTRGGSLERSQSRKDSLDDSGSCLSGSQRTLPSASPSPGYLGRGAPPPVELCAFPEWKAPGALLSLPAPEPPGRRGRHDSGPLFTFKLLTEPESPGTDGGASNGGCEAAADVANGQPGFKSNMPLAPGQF

Columns and labels:
Type in all cases: cell-based
[1] = target: T1, human α1A‐adrenoceptor (Homo sapiens, UniProt P35348); test: Intracellular free calcium mobilization, CHO‐α1A cells; conditions: given as log EC50 (negative)
[2] = target: T2, human α1B‐adrenoceptor (Homo sapiens, UniProt P35368); test: Intracellular free calcium mobilization, CHO‐α1B cells; conditions: response at 100 µM ligand (no EC50 given), % of ionomycin response
[3] = target: T2, human α1B‐adrenoceptor; test: ERK1/2‐phosphorylation (Surefire Alphascreen), CHO‐α1B cells; conditions: maximal response as % PDBu response, for bi‐phasic responses the initial stimulatory part
[4] = target: T1, human α1A‐adrenoceptor; test: ^3H‐cAMP accumulation, CHO‐α1A cells; conditions: 5 h
[5] = target: T1, human α1A‐adrenoceptor; test: ^3H‐cAMP accumulation in the presence of 10 μM forskolin, CHO‐α1A cells

COc1ccccc1N1CCN(CCn2c(=O)[nH]c3c([nH]c4ccccc43)c2=O)CC1
Intracellular calcium release Log EC50 [1]: −7.79 ± 0.12
Intracellular calcium release % ionomycin at 100 µM [2]: 4.6 ± 1.9%
ERK1/2‐phosphorylation % PDBu [3]: No response
cAMP accumulation Log EC50 [4]: No response
cAMP accumulation (in presence of forskolin) Log EC50 [5]: No response
